From ChEMBL document CHEMBL4376826, “Isolation, Structural Identification, Synthesis, and Pharmacological Profiling of 1,2-trans-Dihydro-1,2-diol Metabolites of the Utrophin Modulator Ezutromid” (J Med Chem, 2020) come the findings set out here.

Protein sequences, listed by entry. Tags and fused reporters are not part of them.
UniProt P05177, whole entry: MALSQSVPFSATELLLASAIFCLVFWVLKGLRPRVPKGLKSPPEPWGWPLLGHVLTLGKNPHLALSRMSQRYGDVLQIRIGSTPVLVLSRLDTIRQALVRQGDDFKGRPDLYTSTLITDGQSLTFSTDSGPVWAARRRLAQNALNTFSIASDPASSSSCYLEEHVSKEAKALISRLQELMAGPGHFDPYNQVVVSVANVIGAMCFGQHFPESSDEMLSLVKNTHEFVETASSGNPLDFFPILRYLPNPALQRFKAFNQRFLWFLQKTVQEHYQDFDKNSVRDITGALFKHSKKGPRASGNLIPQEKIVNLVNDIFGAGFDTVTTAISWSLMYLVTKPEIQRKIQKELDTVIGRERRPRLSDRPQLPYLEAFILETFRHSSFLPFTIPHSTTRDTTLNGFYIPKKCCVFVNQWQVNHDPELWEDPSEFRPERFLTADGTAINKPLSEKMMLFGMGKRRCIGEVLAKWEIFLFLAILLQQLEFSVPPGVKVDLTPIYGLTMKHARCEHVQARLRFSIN
UniProt P00185, whole entry: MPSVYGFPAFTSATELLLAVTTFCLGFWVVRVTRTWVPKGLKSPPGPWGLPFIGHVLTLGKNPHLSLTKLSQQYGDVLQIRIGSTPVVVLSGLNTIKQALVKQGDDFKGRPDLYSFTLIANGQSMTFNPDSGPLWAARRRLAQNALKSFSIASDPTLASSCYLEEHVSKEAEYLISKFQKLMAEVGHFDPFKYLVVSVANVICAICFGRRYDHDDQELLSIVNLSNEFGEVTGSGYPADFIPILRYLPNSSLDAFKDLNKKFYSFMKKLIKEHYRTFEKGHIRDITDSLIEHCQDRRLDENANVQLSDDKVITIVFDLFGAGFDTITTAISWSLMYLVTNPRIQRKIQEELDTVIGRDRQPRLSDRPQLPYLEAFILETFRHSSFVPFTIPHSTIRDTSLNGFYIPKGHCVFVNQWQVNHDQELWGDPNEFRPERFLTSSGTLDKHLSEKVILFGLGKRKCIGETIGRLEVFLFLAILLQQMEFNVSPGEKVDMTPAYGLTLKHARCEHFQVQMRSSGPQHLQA

For data set [1], the target named is Cytochrome P450 1A2 (Homo sapiens, UniProt P05177). Description: Induction of CYP1A2 in human hepatocytes at 0.1 to 10 uM incubated for 48 hrs. In kind it is ADME, cell-based.
Data set [2] addresses T1, Cytochrome P450 1A2 (Rattus norvegicus, UniProt P04799).
T1 sequence (P04799 whole entry): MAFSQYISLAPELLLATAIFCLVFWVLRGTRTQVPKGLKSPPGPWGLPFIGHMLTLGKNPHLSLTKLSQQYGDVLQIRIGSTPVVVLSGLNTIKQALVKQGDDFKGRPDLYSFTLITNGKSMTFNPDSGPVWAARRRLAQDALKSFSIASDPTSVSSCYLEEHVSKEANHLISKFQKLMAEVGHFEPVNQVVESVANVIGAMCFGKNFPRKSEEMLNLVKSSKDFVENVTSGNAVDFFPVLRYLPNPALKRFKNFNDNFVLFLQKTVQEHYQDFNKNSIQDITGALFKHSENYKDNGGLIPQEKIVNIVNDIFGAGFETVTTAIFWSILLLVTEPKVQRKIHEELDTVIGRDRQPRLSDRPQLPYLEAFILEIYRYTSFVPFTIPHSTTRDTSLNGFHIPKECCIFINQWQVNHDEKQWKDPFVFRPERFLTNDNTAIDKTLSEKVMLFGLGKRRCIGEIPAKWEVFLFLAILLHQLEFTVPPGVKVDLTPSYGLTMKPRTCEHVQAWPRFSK
Description: Induction of CYP1A2 in rat hepatocytes at 0.1 to 10 uM incubated for 48 hrs. The format is ADME, cell-based.

For data set [3], the system named is CYP1A1/2. In words: Induction of CYP1A1/2 enzymes in rat assessed as increase in EROD enzyme activity per nanomole of P450 at 2000 mg/kg/day, po for 28 days relative to control. In kind it is ADME, organism-based. Particulars: in vivo, read-out: FC; call rule not given here.
Data set [4] concerns CYP1A1/2. In words: Induction of CYP1A1/2 enzymes in female minipig assessed as increase in EROD enzyme activity at 500 mg/kg/day, po for 39 weeks relative to control. In kind it is ADME, organism-based, Sus scrofa domesticus. Particulars: pig, in vivo, read-out: FC.
Data set [5] concerns CYP2B. Description: Induction of CYP2B enzymes in minipig assessed as increase in PROD enzyme activity at 500 mg/kg/day, po for 39 weeks relative to control. In kind it is ADME, organism-based, Sus scrofa domesticus. Particulars: pig, in vivo, read-out: FC.
For data set [6], the system named is CYP1A1/2. Description: Induction of CYP1A1/2 enzymes in rat assessed as increase in EROD enzyme activity per gram of liver at 2000 mg/kg/day, po for 28 days relative to control. The note with it: read-out: FC. The format is ADME, organism-based.
The subject of data set [7] is CYP1A1/2. In words: Induction of CYP1A1/2 enzymes in rat assessed as increase in EROD enzyme activity per milligram of protein at 2000 mg/kg/day, po for 28 days relative to control. The note with it: in vivo, read-out: FC. The format is ADME, organism-based.
Data set [8] concerns CYP2B. Description: Induction of CYP2B enzymes in female minipig assessed as increase in PROD enzyme activity at 500 mg/kg/day, po for 39 weeks relative to control. In kind it is ADME, organism-based, Sus scrofa domesticus. Particulars: pig, in vivo, read-out: FC.
In the next data set the target is Cytochrome P450 1A1 (Rattus norvegicus, UniProt P00185). In words: Induction of CYP1A1 in rat hepatocytes at 0.1 to 10 uM incubated for 48 hrs. In kind it is ADME, cell-based.

In the case of `CCS(=O)(=O)c1ccc2oc(-c3ccc4ccccc4c3)nc2c1` [EZUTROMID], the Activity result on Cytochrome P450 1A2 [1], on Cytochrome P450 1A2 [2] and on Cytochrome P450 1A1 was “Not Active” each time. Besides, the fold induction at 672 h in the data set on CYP1A1/2 [3] is 13 to 18; in the data set with CYP1A1/2 [6], 21 to 22; with CYP1A1/2 [7], 17 to 18. For the same molecule, the fold induction at 6552 h in the data set on CYP1A1/2 [4] came to 4; in the data set on CYP2B [5], 2; in the data set on CYP2B [8], 3.8.
